# Measurements: PubChem BioAssay AID624101 (Broad Institute, 2012)
# Sequences of proteins named here, by UniProt entry; tags and fusion partners are left off.
# UniProt O75874, whole entry R132H: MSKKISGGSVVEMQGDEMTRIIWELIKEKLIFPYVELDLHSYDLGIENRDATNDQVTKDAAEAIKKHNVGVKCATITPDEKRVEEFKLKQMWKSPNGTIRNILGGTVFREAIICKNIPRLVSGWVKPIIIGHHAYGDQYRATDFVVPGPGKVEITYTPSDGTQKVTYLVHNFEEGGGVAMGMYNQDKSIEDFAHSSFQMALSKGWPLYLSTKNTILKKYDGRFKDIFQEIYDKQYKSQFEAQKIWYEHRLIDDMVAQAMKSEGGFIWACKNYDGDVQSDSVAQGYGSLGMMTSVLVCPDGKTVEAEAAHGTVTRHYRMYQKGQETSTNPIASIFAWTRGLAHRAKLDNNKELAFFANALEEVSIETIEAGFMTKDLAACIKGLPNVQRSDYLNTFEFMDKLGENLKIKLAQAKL
# The entries are a selection whose mix differs from that of the whole data set. Some salts or complexes appear as unconnected parts, following the source record. Calls of active or inactive are those of the source. Cut-off read from the data, not from the text of the source: active = inhibition above about 34%; inconclusive = no clear call, values can overlap the other calls; inactive = below about 11%.
# Target: Isocitrate dehydrogenase [NADP] cytoplasmic (Homo sapiens) (UniProt O75874)
# Test: PubChem AID 624101;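 note: 0% = DMSO and 100% = no enzyme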
# Conditions: IDH1 R132H reductase, diaphorase/resazurin fluorescence, 60 min; at 10 µM; hits give high values
row,SMILES,inhibition
1,C/C1=C2N=C(/C=C3N=C(/C(C)=C4\[N-][C@@](C)([C@@H]5N=C1[C@](C)(CCC(=O)NC[C@@H](C)OP(=O)(O)O[C@H]1[C@@H](O)[C@@H](n6cnc7cc(C)c(C)cc76)O[C@@H]1CO)[C@H]5CC(N)=O)[C@@](C)(CC(N)=O)[C@@H]4CCC(N)=O)[C@@](C)(CC(N)=O)[C@@H]\3CCC(N)=O)C(C)(C)[C@@H]/2CCC(N)=O.[C-]#N.[Co+3],inactive: 0.676%
2,C/C1=C2N=C(/C=C3N=C(/C(C)=C4\[N-][C@@](C)([C@@H]5N=C1[C@](C)(CCC(=O)NCC(C)OP(=O)(O)O[C@@H]1[C@H](O)[C@H](n6cnc7cc(C)c(C)cc76)O[C@H]1CO)[C@H]5CC(N)=O)[C@@](C)(CC(N)=O)[C@@H]4CCC(N)=O)[C@@](C)(CC(N)=O)[C@@H]\3CCC(N)=O)C(C)(C)[C@@H]/2CCC(N)=O.[C-]#N.[Co+3] (some centres not stated),inactive: 0.232%
